Amino acid sequences for entries named in this document (tags omitted). Residues count along the entry.
UniProt P29965, 113-261 limits assumed: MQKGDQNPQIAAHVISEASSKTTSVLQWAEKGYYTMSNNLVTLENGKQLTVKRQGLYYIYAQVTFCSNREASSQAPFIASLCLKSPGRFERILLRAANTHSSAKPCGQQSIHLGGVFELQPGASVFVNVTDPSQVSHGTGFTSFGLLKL

These compounds were tested against human CD40–CD40L interaction (Homo sapiens, UniProt P29965). Conditions: binding free energy per non-hydrogen atom.
For `O=C(Nc1ccc(-c2ccc(C(=O)Nc3cccc4cccc(S(=O)(=O)O)c34)cc2)cc1)c1ccc([N+](=O)[O-])cc1` [Compound 6, 8-(4’-(4-Nitrobenzamido)biphenyl-4-ylcarboxamido)naphthalene-1-sulfonic acid], the “ligand efficiency (LE)” value was 0.91–0.93 kJ/atom.
In the case of `COC(=O)c1ccc(C(=O)Nc2ccc(-c3ccc(C(=O)Nc4cccc5cccc(S(=O)(=O)O)c45)cc3)cc2)cc1` [Compound 10, 8-(4’-(4-(Methoxycarbonyl)benzamido)biphenyl-4-ylcarboxamido)naphthalene-1-sulfonic acid], the “ligand efficiency (LE)” value is reported as 0.91–0.93 kJ/atom.
In the case of `O=C(Nc1ccc(-c2ccc(C(=O)Nc3ccc(C(=O)O)c4ccccc34)cc2)cc1)c1ccc([N+](=O)[O-])cc1` [Compound 11, 4-(4’-(4-Nitrobenzamido)biphenyl-4-ylcarboxamido)-1-naphthoic acid], the “ligand efficiency (LE)” value is reported as 0.91–0.93 kJ/atom.

From paper PMC5823691 (Journal of medicinal chemistry, 2017)
